The values that follow come from ChEMBL document CHEMBL3259785, “Recent advances in the discovery of small molecules targeting exchange proteins directly activated by cAMP (EPAC)” (J Med Chem, 2014).

Sequences of proteins named here, by UniProt entry; tags and fusion partners are left off. A change or cut given only in a name is not applied to a line headed by its entry.
UniProt Q8WZA2: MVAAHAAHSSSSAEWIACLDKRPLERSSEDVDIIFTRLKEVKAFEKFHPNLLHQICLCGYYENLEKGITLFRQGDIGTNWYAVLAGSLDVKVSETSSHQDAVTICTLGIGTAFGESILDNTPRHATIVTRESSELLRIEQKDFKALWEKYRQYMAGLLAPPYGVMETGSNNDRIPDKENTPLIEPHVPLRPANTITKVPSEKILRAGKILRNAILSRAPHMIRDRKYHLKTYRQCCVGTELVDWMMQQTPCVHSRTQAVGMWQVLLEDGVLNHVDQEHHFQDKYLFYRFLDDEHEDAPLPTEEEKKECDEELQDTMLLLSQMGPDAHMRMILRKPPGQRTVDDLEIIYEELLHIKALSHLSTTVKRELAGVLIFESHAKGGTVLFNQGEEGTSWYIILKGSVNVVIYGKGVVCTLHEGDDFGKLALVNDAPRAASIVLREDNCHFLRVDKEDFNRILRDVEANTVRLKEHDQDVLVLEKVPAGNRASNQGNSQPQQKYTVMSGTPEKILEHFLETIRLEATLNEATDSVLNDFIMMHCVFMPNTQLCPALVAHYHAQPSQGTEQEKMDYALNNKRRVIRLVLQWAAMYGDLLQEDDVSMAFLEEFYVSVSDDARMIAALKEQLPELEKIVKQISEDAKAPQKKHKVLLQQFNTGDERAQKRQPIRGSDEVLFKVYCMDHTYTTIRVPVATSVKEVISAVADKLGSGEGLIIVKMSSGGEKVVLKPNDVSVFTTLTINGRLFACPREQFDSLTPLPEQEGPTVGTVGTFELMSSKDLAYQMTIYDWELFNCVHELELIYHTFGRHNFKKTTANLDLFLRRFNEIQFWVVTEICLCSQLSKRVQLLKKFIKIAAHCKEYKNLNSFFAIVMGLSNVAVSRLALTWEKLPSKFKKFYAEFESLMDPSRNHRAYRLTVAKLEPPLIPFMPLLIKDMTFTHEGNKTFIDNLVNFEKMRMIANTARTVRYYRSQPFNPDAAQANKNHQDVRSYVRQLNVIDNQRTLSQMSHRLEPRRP

This test deals with Rap guanine nucleotide exchange factor 4 (Homo sapiens, UniProt Q8WZA2). Kind of test: Inhibition of EPAC2 (unknown origin).

SMILES strings stand for the structures. pIC50: −log10 of the molar value.

What is called pIC50 is −log10 of the IC50, conventionally taken in molar units. A high value points to a low IC50. For `Cc1ccc(S(=O)(=O)c2c(C)cc(C)cc2C)cc1`, the pIC50 is 6.40.
